Source: ChEMBL document CHEMBL3826965, “Synthesis and in vitro reactivation study of isonicotinamide derivatives of 2-(hydroxyimino)-N-(pyridin-3-yl)acetamide as reactivators of Sarin and VX inhibited human acetylcholinesterase (hAChE)” (2016)

The chains behind the UniProt entries cited, without tags or fusion partners. Where a name states a change or a piece, a line headed by the entry shows the natural chain unless it says otherwise.
UniProt P22303: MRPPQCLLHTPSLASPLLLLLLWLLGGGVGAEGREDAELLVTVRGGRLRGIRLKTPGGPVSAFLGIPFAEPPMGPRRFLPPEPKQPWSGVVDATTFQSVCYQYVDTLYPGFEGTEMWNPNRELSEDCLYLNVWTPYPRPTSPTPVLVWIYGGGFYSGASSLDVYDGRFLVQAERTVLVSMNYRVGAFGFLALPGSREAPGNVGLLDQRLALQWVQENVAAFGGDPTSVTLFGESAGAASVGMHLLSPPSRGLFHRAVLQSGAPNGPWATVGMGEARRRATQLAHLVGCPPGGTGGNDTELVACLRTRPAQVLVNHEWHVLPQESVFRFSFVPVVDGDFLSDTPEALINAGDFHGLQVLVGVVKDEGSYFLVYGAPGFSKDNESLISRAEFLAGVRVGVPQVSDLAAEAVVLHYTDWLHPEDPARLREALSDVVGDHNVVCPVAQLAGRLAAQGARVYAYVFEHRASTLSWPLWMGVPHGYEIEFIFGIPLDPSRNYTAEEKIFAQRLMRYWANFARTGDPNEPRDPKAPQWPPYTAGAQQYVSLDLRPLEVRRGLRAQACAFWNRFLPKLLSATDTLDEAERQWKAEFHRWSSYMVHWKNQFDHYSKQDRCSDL

How the values were obtained:
[1] = biological target: Acetylcholinesterase (Homo sapiens) (UniProt P22303); experiment: Reactivation of VX-inhibited hemoglobin free erythrocyte ghost human AChE assessed as rate constant for cleavage of P-O bond of VX-AChE conjugate using acetylcholine iodide as substrate measured for 1 hr by spectrophotometry based Ellman method
[2] = biological target: Acetylcholinesterase (Homo sapiens) (UniProt P22303); experiment: Reactivation of sarin-inhibited hemoglobin free erythrocyte ghost human AChE assessed as second order rate constant using acetylcholine iodide as substrate measured for 1 hr by spectrophotometry based Ellman method
[3] = biological target: Acetylcholinesterase (Homo sapiens) (UniProt P22303); experiment: Reactivation of sarin-inhibited hemoglobin free erythrocyte ghost human AChE assessed as rate constant for cleavage of P-O bond of sarin-AChE conjugate using acetylcholine iodide as substrate measured for 1 hr by spectrophotometry based Ellman method
[4] = biological target: Acetylcholinesterase (Homo sapiens) (UniProt P22303); experiment: Reactivation of VX-inhibited hemoglobin free erythrocyte ghost human AChE assessed as second order rate constant using acetylcholine iodide as substrate measured for 1 hr by spectrophotometry based Ellman method

NC(=O)c1cc[n+](CCCCC[n+]2cccc(NC(=O)/C=N\O)c2)cc1
K [1]: 0.211 min⁻¹ | K [2]: 51.7 M⁻¹ s⁻¹ | K [3]: 0.207 min⁻¹ | K [4]: 139 M⁻¹ s⁻¹

NC(=O)c1cc[n+](CCCC[n+]2cccc(NC(=O)/C=N\O)c2)cc1
K [1]: 0.314 min⁻¹ | K [2]: 82.3 M⁻¹ s⁻¹ | K [3]: 0.174 min⁻¹ | K [4]: 424 M⁻¹ s⁻¹

NC(=O)c1cc[n+](CC[n+]2cccc(NC(=O)/C=N\O)c2)cc1
K [1]: 0.37 min⁻¹ | K [2]: 496 M⁻¹ s⁻¹ | K [3]: 0.068 min⁻¹ | K [4]: 62.7 M⁻¹ s⁻¹

C[n+]1ccccc1C=NO
K [2]: 38.8 M⁻¹ s⁻¹

NC(=O)c1cc[n+](CCC[n+]2cccc(NC(=O)/C=N\O)c2)cc1
K [1]: 0.494 min⁻¹ | K [2]: 399 M⁻¹ s⁻¹ | K [3]: 0.156 min⁻¹ | K [4]: 148 M⁻¹ s⁻¹
